For the test, the target named is Dopamine receptor. The test is described as follows: In vitro inhibition of [3H]spiperone binding to Dopamine receptor D2 in Macaca nemestrina striatal membranes. Details: species or system Striatum, Membrane. The gist of the method:
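Caudate tissue from adult Macaca nemestrina brains, homogenized in ice-cold 50 mM potassium phosphate pH 7.4, washed twice by centrifugation at 30000g and stored at -70 °C. Assay used 25-50 µg protein in 50 mM Tris-HCl, 120 mM NaCl, 5 mM CaCl2, 1 mM MgCl2, pH 7.4, with 0.2 nM [3H]spiperone for 30 min at 37 °C. Bound ligand was collected by filtration and counted by scintillation. Nonspecific binding was defined with 1 µM cis-flupenthixol. Ki was taken from competitive displacement.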

The text below walks through data of ChEMBL document CHEMBL1124901 (J Med Chem, 1990).

Regarding `CCN1CCC[C@H]1CNC(=O)c1c(O)c(Cl)cc(Cl)c1OC` [RACLOPRIDE], the Ki (usually a dissociation constant, usually derived from enzyme kinetics or from competition with a known ligand) came out at 8.7 nM.
